PubChem BioAssay AID602276 (University of Pittsburgh Molecular Library Screening Center, 2012)
Only a part is listed here, and it is no random draw. Some tests of the compounds listed are not included; inactive here does not mean inactive elsewhere. The source made the active and inactive calls.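 The calls were made as follows: active = inhibition at or above 50% at 10 µM; inactive = inhibition below 50%.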

Assay: blockers of RIG-like receptor reporter activation – cell-based, Sendai virus stimulus, luciferase, 10K MLSCN set, TLR/RLR signaling modifier project, primary screen (AID 602276);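 also: firefly luciferase from ISG56 promoter only with Renilla not read in this screen; 0% = Sendai virus plus DMSO and 100% = medium plus DMSO without virus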
Details: HEK293 RL24 IRF3 luciferase reporter, at 10 µM, active compounds read high

Question: For `O=C(OC1CN2CCC1CC2)C(CO)(c1ccccc1)c1ccccc1` (stereo unspecified), which inhibition is on record?
Answer: inactive: 11.4%
